Measurements reported in PubChem BioAssay AID576 (NMMLSC, 2007).
The entries are a selection whose mix differs from that of the whole data set. Some results for these compounds are left out of this collection, so the calls shown say nothing about other tests. Calls of active or inactive are those of the source.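 How the source made its calls: active means fluorescence ratio above 2.44, which is 1 plus 3 SD of all ratios; inconclusive means signal too bright to measure linearly, ratio around 10 or more; inactive means fluorescence ratio below 2.44.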

assay: intrinsic compound fluorescence with Jurkat cells – cell-based, flow cytometry, artefact control for VLA-4 allosteric ligand project, primary screen (AID 576); conditions: compound autofluorescence, active compounds read high, 1 = vehicle-only cell background;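 further: green fluorescence of cells measured with 488 nm excitation and 530 nm emission; tested at 10 µM compound in the well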

**Q.** For O=C(OC1CN2CCC1CC2)C(CO)(c1ccccc1)c1ccccc1 (stereo unspecified), which fluorescence ratio is on record?
**A.** inactive: 0.96
